Measurements taken from PubChem BioAssay AID485313 (National Center for Advancing Translational Sciences (NCATS), 2010).
This is a selection; strong and weak results do not stand in their true shares. Activity calls are given as the source filed them. Calls follow the shape of the dose curve; as a rule, active = well fitted activation curve with a large enough effect; inconclusive = small, poorly fitted or top-dose-only effect; inactive = no such curve, though single readings can be large or run the other way.

assay: qHTS Assay for NPC1 Promoter Activators; details: Huh7 NPC1 promoter luciferase reporter, 24 h; at 9.22 µM (top of the series);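 also: reporter is driven by a mutant NPC1 promoter; % of control where 0% means no effect; nearly all actives have a fitted effect of over 60% in size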

Row | SMILES | activation
1 | CCOC(=O)N1CCC(Nc2ccc(F)cc2)CC1 | inactive: 0.509%
2 | COc1ccc(NC2CCN(CCc3ccccc3)CC2)c(OC)c1 | inactive: -0.582%
3 | CCCCOc1ccc(C(=O)NCC2(N3CCOCC3)CCCCC2)cc1 | inactive: 12.1%
4 | O=C(NCC1(N2CCCCC2)CCCCC1)c1ccc(F)cc1 | inactive: -1.98%
5 | CCOc1ccc(C)cc1CN(CCCl)CCCl | inactive: -4.44%
6 | Cc1ccc(OCC(C)C)c(CN(CCCl)CCCl)c1 | inactive: -0.402%
7 | CCOC(=O)N1CCC(Nc2cccc(C)c2)CC1 | inactive: -2.21%
8 | COc1cc(C(=O)NCC2(N(C)C)CCCCC2)ccc1OC(F)F | inactive: 0.768%
9 | CSc1ccccc1C(=O)NCC1(N2CCCCC2)CCCCC1 | inactive: 0.624%
10 | O=C(NCC1(N2CCCCC2)CCCCC1)c1cccs1 | inactive: 1.4%
11 | O=C(NCC1(N2CCCCC2)CCCCC1)c1ccc(=O)[nH]c1 | inactive: -4.53%
12 | COc1ccc(C(=O)NCC2(N3CCCCC3)CCCCC2)c(OC)c1OC | inactive: -2.8%
13 | CC(C)(C)OC(=O)N1CCC(N(C(=O)c2ccccc2)c2ccc(F)cc2)CC1 | inactive: -1.95%
14 | COc1ccc(C(=O)NCC2(N3CCCCC3)CCCCC2)cc1 | inactive: 8.58%
15 | CCOC(=O)N1CCC(Nc2ccc(OC)cc2)CC1 | inactive: -2.83%
16 | COc1ccc(Cl)cc1C(=O)NCC1(N2CCOCC2)CCCCC1 | inactive: -0.252%
17 | N#CC1(Nc2ccccc2)CCN(Cc2ccccc2)CC1 | inactive: -3.19%
18 | O=C(NCC1(N2CCCCC2)CCCCC1)c1ccc(Cl)s1 | inactive: -5.46%
19 | O=C(OC1CN2CCC1CC2)C1c2ccccc2Oc2ccccc21 (stereo not drawn) | inactive: 0.063%
20 | O=C(NCC1(N2CCOCC2)CCCCC1)c1cc2ccccc2o1 | inactive: 4.83%
21 | Cc1cc(C)cc(N(C(=O)c2ccccc2)C2CCN(C(=O)OC(C)(C)C)CC2)c1 | inactive: -3.21%
22 | O=C(NCC1(N2CCCCC2)CCCCC1)c1ccc(Cl)nc1 | inactive: -3.57%
23 | COc1cc(OC)c(C(=O)NCC2(N(C)C)CCCCC2)cc1OC | inactive: 0.132%
24 | CN(C)c1cccc(C(=O)NCC2(N3CCCCC3)CCCCC2)c1 | inactive: -1.9%
25 | O=[N+]([O-])c1cc([N+](=O)[O-])c(OC2CCCCC2O)c([N+](=O)[O-])c1 (stereo not drawn) | inactive: -4.35%
26 | COc1ccc(CN(CCCl)CCCl)cc1Cl | inactive: -1.13%
27 | CCCOc1ccc(C(=O)NCC2(N(C)C)CCCCC2)cc1OC | inactive: -2.18%
28 | O=C(NCC1(N2CCCCC2)CCCCC1)c1cncc(Br)c1 | inactive: -2.32%
